Sequences of proteins named here, by UniProt entry; tags and fusion partners are left off. Residues count along the entry.
UniProt P25774, 115-331: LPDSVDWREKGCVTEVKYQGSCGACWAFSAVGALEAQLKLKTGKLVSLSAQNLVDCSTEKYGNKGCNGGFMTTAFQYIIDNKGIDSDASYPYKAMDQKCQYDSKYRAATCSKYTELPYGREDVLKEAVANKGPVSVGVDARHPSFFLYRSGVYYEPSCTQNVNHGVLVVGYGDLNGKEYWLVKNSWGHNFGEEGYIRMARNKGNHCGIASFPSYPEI

In US20090099157A1, “TETRAHYDRO-PYRAZOLO-PYRIDINE THIOETHER MODULATORS OF CATHEPSIN S” (priority 2007, published 2009):

biological target: Recombinant human cathepsin S (CatS) (Homo sapiens, UniProt P25774); test: biochemical

Compound	IC50
CS(=O)(=O)N1CCc2c(c(-c3ccc(C(F)(F)F)c(SCCN4CCC(F)CC4)c3)nn2C[C@H](O)CN2CCC(O)(c3ccccn3)CC2)C1 [Example 792, 1-[(2R)-3-{3-[3-{[2-(4-Fluoropiperidin-1-yl)ethyl]sulfanyl}-4-(trifluoromethyl)phenyl]-5-(methylsulfonyl)-4,5,6,7-tetrahydro-1H-pyrazolo[4,3-c]pyridin-1-yl}-2-hydroxypropyl]-4-pyridin-2-ylpiperidin-4-ol]	65 nM
CC(C)(C)NCCSc1cc(-c2nn(CCCN3CCC(N4CCCC4=O)CC3)c3c2CN(S(C)(=O)=O)CC3)ccc1C(F)(F)F [Example 144, 1-[1-(3-{3-[3-({2-[(1,1-Dimethylethyl)amino]ethyl}sulfanyl)-4-(trifluoromethyl)phenyl]-5-(methylsulfonyl)-4,5,6,7-tetrahydro-1H-pyrazolo[4,3-c]pyridin-1-yl}propyl)piperidin-4-yl]pyrrolidin-2-one]	3090 nM
CC1(C)CCN(C[C@H](O)Cn2nc(-c3ccc(C(F)(F)F)c(SCCN4CCC(F)CC4)c3)c3c2CCN(S(C)(=O)=O)C3)CC1 [Example 140, (2S)-1-(4,4-Dimethyl-piperidin-1-yl)-3-(3-{3-[2-(4-fluoro-piperidin-1-yl)-ethylsulfanyl]-4-trifluoromethyl-phenyl}-5-methanesulfonyl-4,5,6,7-tetrahydro-pyrazolo[4,3-c]pyridin-1-yl)-propan-2-ol]	80 nM
O=C(CO)N1CCc2c(c(-c3ccc(C(F)(F)F)c(SCCN4CCCC(O)C4)c3)nn2CC(O)CN2CCCCC2)C1 (stereo not shown) [Example 336, 1-[2-({5-[5-(Hydroxyacetyl)-1-(2-hydroxy-3-piperidin-1-ylpropyl)-4,5,6,7-tetrahydro-1H-pyrazolo[4,3-c]pyridin-3-yl]-2-(trifluoromethyl)phenyl}sulfanyl)ethyl]piperidin-3-ol]	3880 nM
CN(C)CC(=O)N1CCc2c(c(-c3ccc(C(F)(F)F)c(SCCN4CCC(F)CC4)c3)nn2CC(O)CN2CCCCC2)C1 (stereo not shown) [Example 433, 1-{5-(N,N-Dimethylglycyl)-3-[3-{[2-(4-fluoropiperidin-1-yl)ethyl]sulfanyl}-4-(trifluoromethyl)phenyl]-4,5,6,7-tetrahydro-1H-pyrazolo[4,3-c]pyridin-1-yl}-3-piperidin-1-ylpropan-2-ol]	680 nM
CS(=O)(=O)N1CCc2c(c(-c3ccc(C(F)(F)F)c(SCCN4CCOCC4)c3)nn2CC(O)CN2CCC(c3nnnn3Cc3ccccc3)CC2)C1 (stereo not shown) [Example 880, 1-[5-(Methylsulfonyl)-3-{3-[(2-morpholin-4-ylethyl)sulfanyl]-4-(trifluoromethyl)phenyl}-4,5,6,7-tetrahydro-1H-pyrazolo[4,3-c]pyridin-1-yl]-3-{4-[1-(phenylmethyl)-1H-tetrazol-5-yl]piperidin-1-yl}propan-2-ol]	160 nM
CS(=O)(=O)N1CCc2c(c(-c3ccc(C(F)(F)F)c(SCCN4CCOCC4)c3)nn2CC(O)CN2CCCC(F)(F)C2)C1 (stereo not shown) [Example 518, 1-(3,3-Difluoropiperidin-1-yl)-3-[5-(methylsulfonyl)-3-{3-[(2-morpholin-4-ylethyl)sulfanyl]-4-(trifluoromethyl)phenyl}-4,5,6,7-tetrahydro-1H-pyrazolo[4,3-c]pyridin-1-yl]propan-2-ol]	1360 nM
CC(C)S(=O)(=O)N1CCc2c(c(-c3ccc(C(F)(F)F)c(SCCN4CCC(F)CC4)c3)nn2C[C@@H](O)CN2CCCCC2)C1 [Example 558, (2S)-1-{3-[3-{[2-(4-Fluoropiperidin-1-yl)ethyl]sulfanyl}-4-(trifluoromethyl)phenyl]-5-[(1-methylethyl)sulfonyl]-4,5,6,7-tetrahydro-1H-pyrazolo[4,3-c]pyridin-1-yl}-3-piperidin-1-ylpropan-2-ol]	350 nM
CS(=O)(=O)N1CCc2c(c(-c3ccc(C(F)(F)F)c(SCCN4CCOCC4)c3)nn2CC(O)CN2CCC(c3ccccc3)CC2)C1 (stereo not shown) [Example 662, 1-[5-(Methylsulfonyl)-3-{3-[(2-morpholin-4-ylethyl)sulfanyl]-4-(trifluoromethyl)phenyl}-4,5,6,7-tetrahydro-1H-pyrazolo[4,3-c]pyridin-1-yl]-3-(4-phenylpiperidin-1-yl)propan-2-ol]	23 nM
CC(=O)NC1CCN(C[C@H](O)Cn2nc(-c3ccc(C(F)(F)F)c(SCCN4CCC(F)(F)CC4)c3)c3c2CCN(S(C)(=O)=O)C3)CC1 [Example 720, N-{1-[(2S)-3-{3-[3-{[2-(4,4-Difluoropiperidin-1-yl)ethyl]sulfanyl}-4-(trifluoromethyl)phenyl]-5-(methylsulfonyl)-4,5,6,7-tetrahydro-1H-pyrazolo[4,3-c]pyridin-1-yl}-2-hydroxypropyl]piperidin-4-yl}acetamide]	35 nM
O=C(C1CCN(CC(O)Cn2nc(-c3ccc(C(F)(F)F)c(SCCN4CCCCC4)c3)c3c2CCNC3)CC1)N1CCCC1 (stereo not shown) [Example 411, 1-(3-{3-[(2-Piperidin-1-ylethyl)sulfanyl]-4-(trifluoromethyl)phenyl}-4,5,6,7-tetrahydro-1H-pyrazolo[4,3-c]pyridin-1-yl)-3-[4-(pyrrolidin-1-ylcarbonyl)piperidin-1-yl]propan-2-ol]	1820 nM
CS(=O)(=O)N1CCc2c(c(-c3ccc(C(F)(F)F)c(SCCN4CCOC(CO)C4)c3)nn2CC(O)CN2CCC(N3CCCC3)CC2)C1 (stereo not shown) [Example 760, 1-{3-[3-({2-[2-(Hydroxymethyl)morpholin-4-yl]ethyl}sulfanyl)-4-(trifluoromethyl)phenyl]-5-(methylsulfonyl)-4,5,6,7-tetrahydro-1H-pyrazolo[4,3-c]pyridin-1-yl}-3-(4-pyrrolidin-1-ylpiperidin-1-yl)propan-2-ol]	300 nM
CS(=O)(=O)N1CCc2c(c(-c3ccc(C(F)(F)F)c(SCCN4CCC(F)(F)CC4)c3)nn2C[C@@H](O)CN2CCCCCC2)C1 [Example 575, (2S)-1-Azepan-1-yl-3-{3-[3-{[2-(4,4-difluoropiperidin-1-yl)ethyl]sulfanyl}-4-(trifluoromethyl)phenyl]-5-(methylsulfonyl)-4,5,6,7-tetrahydro-1H-pyrazolo[4,3-c]pyridin-1-yl}propan-2-ol]	190 nM
N#Cc1ccccc1N1CCN(CC(O)Cn2nc(-c3ccc(C(F)(F)F)c(SCCN4CCC(F)CC4)c3)c3c2CCNC3)CC1 (stereo not shown) [Example 537, 2-[4-(3-{3-[3-{[2-(4-Fluoropiperidin-1-yl)ethyl]sulfanyl}-4-(trifluoromethyl)phenyl]-4,5,6,7-tetrahydro-1H-pyrazolo[4,3-c]pyridin-1-yl}-2-hydroxypropyl)piperazin-1-yl]benzonitrile]	150 nM
CS(=O)(=O)NC1CCN(CC(O)Cn2nc(-c3ccc(C(F)(F)F)c(SCC(=O)N4CCOCC4)c3)c3c2CCNC3)CC1 (stereo not shown) [Example 460, N-{1-[2-Hydroxy-3-(3-{3-[(2-morpholin-4-yl-2-oxoethyl)sulfanyl]-4-(trifluoromethyl)phenyl}-4,5,6,7-tetrahydro-1H-pyrazolo[4,3-c]pyridin-1-yl)propyl]piperidin-4-yl}methanesulfonamide]	2400 nM
O=C([C@@H](O)c1ccccc1)N1CCc2c(c(-c3ccc(C(F)(F)F)c(SCCN4CCC(F)CC4)c3)nn2CC(O)CN2CCCCC2)C1 (stereo partly drawn) [Example 653, 1-{3-[3-{[2-(4-Fluoropiperidin-1-yl)ethyl]sulfanyl}-4-(trifluoromethyl)phenyl]-5-[(2S)-2-hydroxy-2-phenylacetyl]-4,5,6,7-tetrahydro-1H-pyrazolo[4,3-c]pyridin-1-yl}-3-piperidin-1-ylpropan-2-ol]	400 nM
O=C(CSc1cc(-c2nn(CC(O)CN3CC[C@H](C(F)(F)F)C3)c3c2CNCC3)ccc1C(F)(F)F)N1CCCC1 (stereo partly drawn) [Example 315, 1-(3-{3-[(2-Oxo-2-pyrrolidin-1-ylethyl)sulfanyl]-4-(trifluoromethyl)phenyl}-4,5,6,7-tetrahydro-1H-pyrazolo[4,3-c]pyridin-1-yl)-3-[(3S)-3-(trifluoromethyl)pyrrolidin-1-yl]propan-2-ol]	> 20000 nM
CC1(C)CCN(C[C@H](O)Cn2nc(-c3ccc(C(F)(F)F)c(SCCN4CC[C@H](F)C4)c3)c3c2CCN(S(C)(=O)=O)C3)CC1 [Example 464, (2S)-1-(4,4-Dimethylpiperidin-1-yl)-3-{3-[3-({2-[(3S)-3-fluoropyrrolidin-1-yl]ethyl}sulfanyl)-4-(trifluoromethyl)phenyl]-5-(methylsulfonyl)-4,5,6,7-tetrahydro-1H-pyrazolo[4,3-c]pyridin-1-yl}propan-2-ol]	650 nM
O=C1CCCN1C1CCN(CC(O)Cn2nc(-c3ccc(C(F)(F)F)c(SCCN4CCCCC4)c3)c3c2CCN(S(=O)(=O)c2ccccc2)C3)CC1 (stereo not shown) [Example 234, 1-(1-{2-Hydroxy-3-[5-(phenylsulfonyl)-3-{3-[(2-piperidin-1-ylethyl)sulfanyl]-4-(trifluoromethyl)phenyl}-4,5,6,7-tetrahydro-1H-pyrazolo[4,3-c]pyridin-1-yl]propyl}piperidin-4-yl)pyrrolidin-2-one]	20 nM
Oc1cccc(N2CCN(C[C@H](O)Cn3nc(-c4ccc(C(F)(F)F)c(SCCN5CCC(F)CC5)c4)c4c3CCNC4)CC2)c1 [Example 479, 3-{4-[(2S)-3-{3-[3-{[2-(4-Fluoropiperidin-1-yl)ethyl]sulfanyl}-4-(trifluoromethyl)phenyl]-4,5,6,7-tetrahydro-1H-pyrazolo[4,3-c]pyridin-1-yl}-2-hydroxypropyl]piperazin-1-yl}phenol]	480 nM
CC1CCN(CCSc2cc(-c3nn(C[C@@H](O)CN4CCC(C(N)=O)CC4)c4c3CN(S(C)(=O)=O)CC4)ccc2C(F)(F)F)CC1 [Example 597, 1-[(2S)-2-Hydroxy-3-{3-[3-{[2-(4-methylpiperidin-1-yl)ethyl]sulfanyl}-4-(trifluoromethyl)phenyl]-5-(methylsulfonyl)-4,5,6,7-tetrahydro-1H-pyrazolo[4,3-c]pyridin-1-yl}propyl]piperidine-4-carboxamide]	110 nM
O=C(c1nc[nH]n1)N1CCc2c(c(-c3ccc(C(F)(F)F)c(SCCN4CCC(F)CC4)c3)nn2C[C@@H](O)CN2CCCCC2)C1 [Example 494, (2S)-1-{3-[3-{[2-(4-Fluoropiperidin-1-yl)ethyl]sulfanyl}-4-(trifluoromethyl)phenyl]-5-(1H-1,2,4-triazol-3-ylcarbonyl)-4,5,6,7-tetrahydro-1H-pyrazolo[4,3-c]pyridin-1-yl}-3-piperidin-1-ylpropan-2-ol]	200 nM
